Assays:
PDE2 = PDE2 (Homo sapiens, UniProt O00408); assay: In vitro activity against PDE isoenzyme; type: biochemical
PDE9 = PDE9 (Homo sapiens, UniProt O76083); assay: In vitro activity against PDE isoenzyme; type: biochemical

Sequences of proteins named here, by UniProt entry; tags and fusion partners are left off. A change or cut given only in a name is not applied to a line headed by its entry.
UniProt O00408, whole entry: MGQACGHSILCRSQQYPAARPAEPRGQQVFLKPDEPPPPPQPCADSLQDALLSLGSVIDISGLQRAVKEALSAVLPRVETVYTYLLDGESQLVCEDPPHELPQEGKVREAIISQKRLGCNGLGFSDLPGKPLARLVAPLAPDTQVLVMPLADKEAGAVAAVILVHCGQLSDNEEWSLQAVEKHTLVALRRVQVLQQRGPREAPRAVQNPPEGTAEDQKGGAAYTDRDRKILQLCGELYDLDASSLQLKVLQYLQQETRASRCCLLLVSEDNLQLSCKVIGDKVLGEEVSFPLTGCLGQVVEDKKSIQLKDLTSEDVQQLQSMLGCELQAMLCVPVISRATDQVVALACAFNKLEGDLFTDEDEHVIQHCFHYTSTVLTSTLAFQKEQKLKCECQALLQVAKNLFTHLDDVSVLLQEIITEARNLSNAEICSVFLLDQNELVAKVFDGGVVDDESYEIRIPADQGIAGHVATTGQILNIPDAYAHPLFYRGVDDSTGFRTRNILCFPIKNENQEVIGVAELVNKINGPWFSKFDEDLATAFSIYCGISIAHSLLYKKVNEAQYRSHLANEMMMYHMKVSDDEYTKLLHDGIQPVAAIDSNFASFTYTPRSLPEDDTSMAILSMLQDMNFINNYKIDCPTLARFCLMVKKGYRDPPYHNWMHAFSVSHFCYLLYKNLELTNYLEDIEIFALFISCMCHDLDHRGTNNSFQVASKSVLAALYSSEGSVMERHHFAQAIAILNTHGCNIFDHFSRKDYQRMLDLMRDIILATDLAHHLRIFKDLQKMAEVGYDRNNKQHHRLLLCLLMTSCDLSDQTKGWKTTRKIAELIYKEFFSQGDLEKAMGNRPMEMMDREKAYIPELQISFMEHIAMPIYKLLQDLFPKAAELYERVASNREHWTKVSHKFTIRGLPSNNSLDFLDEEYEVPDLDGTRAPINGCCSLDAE
UniProt O76083: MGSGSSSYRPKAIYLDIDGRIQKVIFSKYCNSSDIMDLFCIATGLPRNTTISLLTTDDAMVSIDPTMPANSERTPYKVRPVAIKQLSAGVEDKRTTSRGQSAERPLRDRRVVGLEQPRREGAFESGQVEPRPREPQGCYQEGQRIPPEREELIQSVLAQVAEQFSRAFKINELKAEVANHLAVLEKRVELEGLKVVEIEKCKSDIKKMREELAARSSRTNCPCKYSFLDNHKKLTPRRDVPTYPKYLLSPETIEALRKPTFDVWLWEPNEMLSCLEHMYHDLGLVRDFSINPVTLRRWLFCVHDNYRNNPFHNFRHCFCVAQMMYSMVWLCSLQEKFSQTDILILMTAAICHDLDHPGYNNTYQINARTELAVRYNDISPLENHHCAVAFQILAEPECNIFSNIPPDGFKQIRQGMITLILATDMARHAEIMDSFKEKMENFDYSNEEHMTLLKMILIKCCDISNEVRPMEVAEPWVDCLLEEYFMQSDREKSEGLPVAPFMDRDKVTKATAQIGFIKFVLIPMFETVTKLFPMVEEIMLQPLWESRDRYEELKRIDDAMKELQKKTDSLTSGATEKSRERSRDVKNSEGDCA

SMILES: CCCc1nn(C)c2c(=O)[nH]c(-c3cc(S(=O)(=O)N4CCN(C)CC4)ccc3OCC)nc12 [Sildenafil, reference compound]
- IC50 (PDE2): 6.84 µM
- IC50 (PDE9): > 100 µM

Reference: patent publication US9527849B2, “Salt and polymorph of pyrazolopyrimidinone compound, and pharmaceutical composition containing the same, preparation method and use thereof” (TOPHARMAN SHANGHAI CO., LTD., priority 2011, dated 2016)
